From patent publication US7727530B2, “Anti-cancer composition comprising proline or its derivatives and an anti-tumour antibody” (priority 2004, dated 2010)
Values joined by “and” are separate entries in the source; they are usually repeats but may differ in a detail not shown here. Identical values can stand only once.

How the values were obtained:
Assay type in all cases: cell-based
[1] = tested on: Colo205 colon cancer cells; assay: MTT proliferation (chemosensitivity) assay, Colo205
SW620 colon cancer cells = assay: MTT proliferation (chemosensitivity) assay, SW620
Description: (§1) MTT proliferation tests were performed as described. The proliferation control of both the untreated cells and the CHP pre-treated cells is set to 100%.
(§2) Unless otherwise indicated, all cell lines were obtained from the American Type Culture Collection (ATCC, Rockville, Md.) and grown to confluent monolayers in RPMI-1640 bicarbonate medium (Seromed, Berlin, Germany) in a humidified incubator (5% CO2, 37° C.). Cells were checked for mycoplasma contamination. The medium was supplemented with 10% heat-inactivated foetal bovine serum (Seromed) and 4 mM glutamine. The cells were subcultured by trypsination (0.03% trypsin containing 0.02% EDTA, three times a week). Cells numbers were counted using a TOA Sysmex microcellcounter (TOA, Tokyo, Japan).
(§3) 10^4 cells/well were distributed into 96-well microtitre plates (100 μl medium) and the compounds to be tested were added in another 100 μl volume. All compounds were diluted in triplicate or in most cases in quadruplicate. Plates were incubated under tissue culture conditions for 4 days, except those for tests investigating the relationship between application time and response, and cell viability was measured using a modified MTT assay (formazane dye formation from tetrazolium salts by mitochondrial reduction; EZ4U, Biomedica, Vienna, Austria), assessing mitochondrial activity and thereby cell viability/cell numbers. In brief, the supplied substrate was diluted in an activator solution and 20 μl of the mixture added per well for 2 hrs. The optical density was measured at 450 nm using an empty well as reference in a microplate reader (Eurogenetics, Brussels, Belgium). For each cell line, 8 wells were used to measure the MTT signal of the medium control without test substances and the proliferation in the test wells was calculated in relation to these control values set to 100%. Test results were recorded between 0.3 and 1.5 optical densities for slowly and rapidly proliferating cells respectively.
(§4) SW620chp4 and A431chp4 cells represent cells pre-treated with 400 μg/ml CHP for 5 days under tissue culture conditions.

[2] = tested on: A431 epidermoid carcinoma; assay: MTT proliferation (chemosensitivity) assay, A431
Description: as §1, §2, §3, §4

[3] = Colo 205 cells pre-incubated with the derivative 50 μg/ml for 5 days, then Cetuximab, Cetuximab concentrations not given

`CCOC(=O)[C@@H]1CC(O)CN1C` (stereo partly shown) [A1.21, 4-hydroxy-1-methyl-proline ethyl ester] was tested, and the “proliferation activity (% of control)” value [1, 3] was 101.4 ± 2.1% and 99.4 ± 2.1% and 100.9 ± 1.9% and 99.4 ± 3.0% and 92.7 ± 2.5%.

For `CCOC(=O)[C@@H]1CC(OC(=O)Nc2ccccc2)CN1C` (stereo partly shown) [A1.23, 1-methyl-4-phenylamino-carbonyloxy-proline ethyl ester], the “proliferation activity (% of control)” value [1, 3] was 93.9 ± 2.9%.

`CC(C)COC(=O)[C@@H]1CC(OC(=O)Nc2ccccc2)CN1C` (stereo partly shown) [A2.23, 1-methyl-4-phenylamino-carbonyloxy-proline-isobutyl ester] was tested, and the “proliferation activity (% of control)” value [1, 3] was 101.6 ± 5.9%.

In the case of “Cetuximab: commercially available monoclonal antibody directed to a tumour antigen, used as supplied for clinical use”, the “proliferation activity (% of control)” value (SW620 colon cancer cells; SW620chp4 (cells pre-treated with 400 μg/ml CHP for 5 days), Cetuximab 1.6 μg/ml) is reported as 93.9 ± 2.1 %, the “proliferation activity (% of control)” value (SW620 colon cancer cells; SW620chp4 (cells pre-treated with 400 μg/ml CHP for 5 days), Cetuximab 3.2 μg/ml) is reported as 92.7 ± 0.6 % and the “proliferation activity (% of control)” value (SW620 colon cancer cells; SW620chp4 (cells pre-treated with 400 μg/ml CHP for 5 days), Cetuximab 6.3 μg/ml) is reported as 97.8 ± 4.1 %. The “proliferation activity (% of control)” value (SW620 colon cancer cells; SW620chp4 (cells pre-treated with 400 μg/ml CHP for 5 days), Cetuximab 12.5 μg/ml) was 98.6 ± 2.6%, the “proliferation activity (% of control)” value (SW620 colon cancer cells; SW620chp4 (cells pre-treated with 400 μg/ml CHP for 5 days), Cetuximab 25 μg/ml) was 99.2 ± 2.9% and the “proliferation activity (% of control)” value (SW620 colon cancer cells; SW620chp4 (cells pre-treated with 400 μg/ml CHP for 5 days), Cetuximab 50 μg/ml) was 98.5 ± 3.2%. For the same compound, the “proliferation activity (% of control)” value (SW620 colon cancer cells; SW620con (cells not pre-treated), Cetuximab 1.6 μg/ml) was 101.5 ± 1.5%, the “proliferation activity (% of control)” value (SW620 colon cancer cells; SW620con (cells not pre-treated), Cetuximab 3.2 μg/ml) was 101.8 ± 2.1% and the “proliferation activity (% of control)” value (SW620 colon cancer cells; SW620con (cells not pre-treated), Cetuximab 6.3 μg/ml) was 102.7 ± 1.8%. For the same compound, the “proliferation activity (% of control)” value (SW620 colon cancer cells; SW620con (cells not pre-treated), Cetuximab 12.5 μg/ml) was 100.2 ± 4.0%, the “proliferation activity (% of control)” value (SW620 colon cancer cells; SW620con (cells not pre-treated), Cetuximab 25 μg/ml) was 101.7 ± 2.7% and the “proliferation activity (% of control)” value (SW620 colon cancer cells; SW620con (cells not pre-treated), Cetuximab 50 μg/ml) was 100.5 ± 4.3%. For the same compound, the “proliferation activity (% of control)” value ([2]; A431chp4 (cells pre-treated with 400 μg/ml CHP for 5 days), Cetuximab 1.6 μg/ml) was 92.6 ± 9.1%, the “proliferation activity (% of control)” value ([2]; A431chp4 (cells pre-treated with 400 μg/ml CHP for 5 days), Cetuximab 3.2 μg/ml) was 101.9 ± 3.4 % and the “proliferation activity (% of control)” value ([2]; A431chp4 (cells pre-treated with 400 μg/ml CHP for 5 days), Cetuximab 6.3 μg/ml) was 99.4 ± 1.5 %. The “proliferation activity (% of control)” value ([2]; A431chp4 (cells pre-treated with 400 μg/ml CHP for 5 days), Cetuximab 12.5 μg/ml) was 98.7 ± 3.8 %, the “proliferation activity (% of control)” value ([2]; A431chp4 (cells pre-treated with 400 μg/ml CHP for 5 days), Cetuximab 25 μg/ml) was 101.1 ± 2.8 % and the “proliferation activity (% of control)” value ([2]; A431chp4 (cells pre-treated with 400 μg/ml CHP for 5 days), Cetuximab 50 μg/ml) was 98.4 ± 4.6 %. The “proliferation activity (% of control)” value ([2]; A431con (cells not pre-treated), Cetuximab 1.6 μg/ml) was 89.5 ± 2.6%, the “proliferation activity (% of control)” value ([2]; A431con (cells not pre-treated), Cetuximab 3.2 μg/ml) was 93.3 ± 1.9% and the “proliferation activity (% of control)” value ([2]; A431con (cells not pre-treated), Cetuximab 6.3 μg/ml) was 91.3 ± 4.7%. The “proliferation activity (% of control)” value ([2]; A431con (cells not pre-treated), Cetuximab 12.5 μg/ml) was 89.3 ± 1.6%, the “proliferation activity (% of control)” value ([2]; A431con (cells not pre-treated), Cetuximab 25 μg/ml) was 94.7 ± 1.9% and the “proliferation activity (% of control)” value ([2]; A431con (cells not pre-treated), Cetuximab 50 μg/ml) was 92.3 ± 2.4%. For the same compound, the “proliferation activity (% of control)” value ([1]; C205con (Cetuximab alone), Cetuximab 0.15 μg/ml) was 94.8 ± 5.9%, the “proliferation activity (% of control)” value ([1]; C205con (Cetuximab alone), Cetuximab 0.3 μg/ml) was 104.2 ± 6.8% and the “proliferation activity (% of control)” value ([1]; C205con (Cetuximab alone), Cetuximab 0.6 μg/ml) was 98.0 ± 3.5%. For the same compound, the “proliferation activity (% of control)” value ([1]; C205con (Cetuximab alone), Cetuximab 1.25 μg/ml) was 101.6 ± 7.1%, the “proliferation activity (% of control)” value ([1]; C205con (Cetuximab alone), Cetuximab 2.5 μg/ml) was 101.7 ± 4.3% and the “proliferation activity (% of control)” value ([1]; C205con (Cetuximab alone), Cetuximab 5 μg/ml) was 100.7 ± 7.9%. The “proliferation activity (% of control)” value ([1]; C205con (Cetuximab alone), Cetuximab 10 μg/ml) was 99.1 ± 3.2%, the “proliferation activity (% of control)” value ([1]; C205con (Cetuximab alone), Cetuximab 20 μg/ml) was 103.1 ± 3.0% and the “proliferation activity (% of control)” value ([1]; C205con (Cetuximab alone), Cetuximab 40 μg/ml) was 100.1 ± 4.6%. The “proliferation activity (% of control)” value ([1]; C205con (cells not pre-incubated), Cetuximab, concentrations not given) was 97.9 ± 11% and 95.9 ± 6.3% and 96.5 ± 9.9% and 94.9 ± 4.6% and 95.4 ± 8.2% and 93.1 ± 2.5%.
